The subject of this data set is O=P(O)(O)O[C@H]1[C@H](OP(=O)(O)O)[C@@H](OP(=O)(O)O)[C@H](OP(=O)(O)O)[C@@H](OP(=O)(O)O)[C@H]1OP(=O)(O)O. As to the kind of experiment: purified protein, by the assay type. To be noted: other: YeAPPA wild, sodium phytate 0.0625-1.5 mmol/L, optimal pH 5, 45° C.

The Km is the concentration of substrate that gives half-maximal velocity. On to “wild phytase YeAPPA, SEQ ID NO.1 (Yersinia enterocolitica)”, for which the Km was 190 µM.

The values above are taken from patent US11155793B2, “Phytase variants YeAPPA having improved gastric protein resistance and acid resistance, and increased catalytic efficiency” (priority 2017, dated 2021).
